Reference: patent EP4775209A1 (Ascentawits Pharmaceuticals, Ltd., priority 2023, dated 2025)

Assay: Toxicokinetics (QD×5/21 Days) in monkeys
Details: AST-3424 0.1, 0.2, 0.4/0.3 mg/kg 30-minute i.v. infusion QD×5; metabolite time after the start of administration; approximate

C[C@H](OP(=O)(N1CC1)N1CC1)c1ccc([N+](=O)[O-])c(Oc2cccc(C(=O)N(C)C)c2)c1 [AST-3424]
Tmax, time to peak concentration: immediately after the end of administration
